Measured values taken from patent US9090617B1, “Agonists of Src homology-2 containing protein tyrosine phosphatase-1 and treatment methods using the same” (National Taiwan University, priority 2011, dated 2015).

Test system: p-VEGFR2 (Tyr1175)
Details: HUVEC cells, 10 μM, 24 h

In the case of CNC(=O)c1cc(Oc2ccc(NC(=O)Nc3ccc(Cl)c(C(F)(F)F)c3)cc2)ccn1 [Sorafenib, reference compound], the “phosphorylation of VEGFR” value is reported as “down-regulated the phosphorylation of VEGFR”.
